System: HLA-B44 supertype molecules
Assay: HLA-B44 supertype cross-binding
Set-up: species or system human
Conditions: number of the six B44 supertype alleles bound

Structure (SMILES) | Degeneracy
CC(C)[C@H](NC(=O)[C@H](CC(=O)O)NC(=O)[C@H](CO)NC(=O)CNC(=O)[C@H](C)NC(=O)CNC(=O)[C@H](CCC(=O)O)NC(=O)[C@@H](N)CO)C(=O)N[C@@H](Cc1ccccc1)C(=O)O [compound 523] | 3
CC(C)C[C@H](NC(=O)CNC(=O)[C@H](CC(C)C)NC(=O)[C@H](Cc1ccc(O)cc1)NC(=O)[C@H](CCC(=O)O)NC(=O)[C@@H]1CCCN1)C(=O)N[C@@H](CC(=O)O)C(=O)N[C@H](C(=O)N1CCC[C@H]1C(=O)N[C@H](C(=O)O)C(C)C)C(C)C [compound 524] | 3
CSCC[C@H](N)C(=O)N[C@@H](CCC(=O)O)C(=O)N[C@@H](Cc1c[nH]cn1)C(=O)N[C@@H](CC(C)C)C(=O)N[C@@H](CCCNC(=N)N)C(=O)N[C@@H](CCC(=O)O)C(=O)N[C@H](C(=O)N[C@@H](CCCNC(=N)N)C(=O)N[C@@H](C)C(=O)N[C@H](C(=O)N[C@H](C(=O)O)[C@@H](C)O)C(C)C)C(C)C [compound 526] | 2
CC[C@H](C)[C@H](NC(=O)[C@H](CCC(=O)O)NC(=O)[C@H](CCC(=O)O)NC(=O)[C@@H](N)CC(C)C)C(=O)N[C@H](C(=O)NCC(=O)N[C@@H](Cc1ccc(O)cc1)C(=O)N[C@@H](CC(C)C)C(=O)O)[C@@H](C)O [compound 527] | 2
CC[C@H](C)[C@H](NC(=O)[C@@H]1CCCN1C(=O)[C@H](CS)NC(=O)[C@@H]1CCCN1C(=O)[C@H](CCC(N)=O)NC(=O)[C@H](CS)NC(=O)[C@H](C)NC(=O)CNC(=O)[C@H](CCC(=O)O)NC(=O)[C@H](CCC(=O)O)NC(=O)[C@@H](N)CC(=O)O)C(=O)O [compound 528] | 2
CC(C)C[C@H](NC(=O)[C@@H]1CCCN1C(=O)[C@H](CCC(=O)O)NC(=O)[C@@H](NC(=O)[C@H](CC(C)C)NC(=O)[C@H](CCC(=O)O)NC(=O)[C@@H](N)[C@@H](C)O)C(C)C)C(=O)O [compound 529] | 2
CC(C)C[C@H](NC(=O)[C@@H]1CCCN1C(=O)[C@H](CCC(=O)O)NC(=O)[C@@H](N)C(C)C)C(=O)N[C@H](C(=O)N1CCC[C@H]1C(=O)N[C@@H](CO)C(=O)NCC(=O)N[C@@H](C)C(=O)O)[C@@H](C)O [compound 530] | 2
CC(C)C[C@H](NC(=O)[C@H](CCC(=O)O)NC(=O)[C@@H](NC(=O)[C@H](CCC(=O)O)NC(=O)[C@@H](N)CCCCN)[C@@H](C)O)C(=O)N[C@@H](CCCNC(=N)N)C(=O)N[C@@H](CCCCN)C(=O)N[C@H](C(=O)N[C@@H](CCCCN)C(=O)N[C@H](C(=O)O)C(C)C)C(C)C [compound 531] | 2
CC(C)C[C@H](NC(=O)[C@@H](NC(=O)[C@H](CCCCN)NC(=O)[C@@H](NC(=O)[C@H](CCCCN)NC(=O)[C@H](CCCNC(=N)N)NC(=O)[C@H](CC(C)C)NC(=O)[C@H](CCC(=O)O)NC(=O)[C@@H](N)[C@@H](C)O)C(C)C)C(C)C)C(=O)O [compound 532] | 2
CC(C)C[C@H](NC(=O)[C@H](CC(=O)O)NC(=O)[C@H](CCCNC(=N)N)NC(=O)[C@H](Cc1c[nH]cn1)NC(=O)[C@@H](NC(=O)[C@H](CC(C)C)NC(=O)[C@H](CCCNC(=N)N)NC(=O)[C@@H](NC(=O)[C@H](CC(=O)O)NC(=O)[C@H](CCC(=O)O)NC(=O)[C@@H](N)CC(C)C)C(C)C)C(C)C)C(=O)O [compound 533] | 2
CC[C@H](C)[C@H](NC(=O)[C@H](CO)NC(=O)[C@H](CCC(=O)O)NC(=O)[C@@H](N)CC(C)C)C(=O)N[C@@H](CC(C)C)C(=O)N[C@@H](CCCNC(=N)N)C(=O)N[C@@H](CCCNC(=N)N)C(=O)N[C@@H](CCCNC(=N)N)C(=O)N[C@@H](Cc1ccccc1)C(=O)N[C@H](C(=O)O)[C@@H](C)O [compound 535] | 2
CC(C)C[C@H](NC(=O)[C@@H]1CCCN1C(=O)[C@H](CO)NC(=O)[C@H](CCCNC(=N)N)NC(=O)[C@@H]1CCCN1C(=O)[C@H](C)NC(=O)[C@H](CCC(=O)O)NC(=O)[C@H](CCC(=O)O)NC(=O)[C@H](CCC(=O)O)NC(=O)[C@@H](N)CO)C(=O)N[C@@H](C)C(=O)O [compound 538] | 2
CC(C)[C@H](NC(=O)[C@H](CC(=O)O)NC(=O)[C@H](CO)NC(=O)CNC(=O)[C@H](C)NC(=O)CNC(=O)[C@H](CCC(=O)O)NC(=O)[C@@H](N)CO)C(=O)N[C@@H](Cc1ccccc1)C(=O)N[C@@H](CC(=O)O)C(=O)NCC(=O)O [compound 539] | 2
CC(C)C[C@H](NC(=O)[C@H](Cc1ccc(O)cc1)NC(=O)[C@H](CCC(=O)O)NC(=O)[C@@H]1CCCN1)C(=O)N[C@H](C(=O)N1CCC[C@H]1C(=O)N[C@@H](CCC(N)=O)C(=O)NCC(=O)NCC(=O)N[C@@H](C)C(=O)N[C@@H](C)C(=O)O)[C@@H](C)O [compound 540] | 2

Second part, the compound after the results:

Degeneracy | Structure (SMILES)
2 | C[C@H](NC(=O)CNC(=O)[C@H](CCCNC(=N)N)NC(=O)[C@H](CCC(=O)O)NC(=O)[C@@H]1CCCN1)C(=O)N1CCC[C@H]1C(=O)N1CCC[C@H]1C(=O)N[C@@H](CO)C(=O)N[C@H](C(=O)O)[C@@H](C)O [compound 541]
1 | CSCC[C@H](NC(=O)[C@H](CC(=O)O)NC(=O)[C@H](CC(C)C)NC(=O)[C@H](Cc1c[nH]cn1)NC(=O)[C@@H](NC(=O)[C@H](CCC(=O)O)NC(=O)[C@@H]1CCCN1)[C@@H](C)O)C(=O)N[C@@H](CC(C)C)C(=O)O [compound 542]
1 | CSCC[C@H](NC(=O)[C@H](CC(=O)O)NC(=O)[C@H](CC(C)C)NC(=O)[C@H](Cc1c[nH]cn1)NC(=O)[C@@H](NC(=O)[C@H](CCC(=O)O)NC(=O)[C@@H]1CCCN1)[C@@H](C)O)C(=O)N[C@@H](CC(C)C)C(=O)N[C@@H](CCCNC(=N)N)C(=O)N[C@@H](Cc1c[nH]cn1)C(=O)N[C@@H](CC(C)C)C(=O)O [compound 543]
1 | CC(C)C[C@H](NC(=O)[C@H](CO)NC(=O)[C@H](CCC(N)=O)NC(=O)[C@H](CS)NC(=O)[C@H](CC(=O)O)NC(=O)[C@H](CCC(=O)O)NC(=O)[C@@H](N)CO)C(=O)O [compound 544]
1 | C[C@H](NC(=O)[C@H](C)NC(=O)[C@H](CS)NC(=O)[C@H](CCC(N)=O)NC(=O)[C@H](CCC(=O)O)NC(=O)[C@@H](N)Cc1c[nH]cn1)C(=O)NCC(=O)N[C@@H](CS)C(=O)N[C@H](C(=O)O)[C@@H](C)O [compound 545]
1 | CC(C)[C@H](NC(=O)[C@H](CCC(=O)O)NC(=O)[C@@H](N)CCC(N)=O)C(=O)N[C@H](C(=O)N[C@@H](C)C(=O)N[C@@H](CCC(=O)O)C(=O)N[C@@H](CC(=O)O)C(=O)NCC(=O)N[C@H](C(=O)O)[C@@H](C)O)[C@@H](C)O [compound 547]
1 | CC(C)[C@H](NC(=O)[C@H](CCCNC(=N)N)NC(=O)[C@H](C)NC(=O)[C@H](CS)NC(=O)[C@@H]1CCCN1C(=O)[C@H](CCCCN)NC(=O)[C@H](CO)NC(=O)[C@H](CS)NC(=O)[C@H](CCCCN)NC(=O)[C@H](CCC(=O)O)NC(=O)[C@@H](N)CS)C(=O)O [compound 549]
1 | CC(C)[C@H](NC(=O)[C@H](C)NC(=O)[C@H](CCCNC(=N)N)NC(=O)[C@@H](NC(=O)[C@H](CCC(=O)O)NC(=O)[C@@H](N)CCCNC(=N)N)C(C)C)C(=O)N[C@H](C(=O)O)[C@@H](C)O [compound 550]
1 | CC[C@H](C)[C@H](NC(=O)[C@H](CCC(=O)O)NC(=O)[C@H](CCC(=O)O)NC(=O)[C@H](CC(C)C)NC(=O)[C@@H](NC(=O)[C@H](CCC(=O)O)NC(=O)[C@@H](N)Cc1ccccc1)[C@@H](C)O)C(=O)O [compound 551]
1 | CC[C@H](C)[C@H](NC(=O)[C@H](CCC(=O)O)NC(=O)[C@H](CCC(=O)O)NC(=O)[C@H](CC(C)C)NC(=O)[C@@H](NC(=O)[C@H](CCC(=O)O)NC(=O)[C@@H](N)Cc1ccccc1)[C@@H](C)O)C(=O)N[C@H](C(=O)NCC(=O)N[C@@H](Cc1ccc(O)cc1)C(=O)O)[C@@H](C)O [compound 552]
1 | CC(C)[C@H](NC(=O)[C@H](CCCNC(=N)N)NC(=O)[C@H](CS)NC(=O)[C@H](CCC(=O)O)NC(=O)[C@H](CCC(=O)O)NC(=O)[C@@H](NC(=O)[C@H](CS)NC(=O)[C@H](CCC(=O)O)NC(=O)[C@@H](N)CCC(N)=O)C(C)C)C(=O)O [compound 554]
1 | CC(C)C[C@H](NC(=O)[C@@H](NC(=O)[C@H](CCCNC(=N)N)NC(=O)[C@H](CS)NC(=O)[C@H](CCC(=O)O)NC(=O)[C@H](CCC(=O)O)NC(=O)[C@@H](N)C(C)C)C(C)C)C(=O)N[C@@H](CCC(N)=O)C(=O)NCC(=O)O [compound 555]
1 | CC(C)C[C@H](NC(=O)CNC(=O)[C@H](CCC(N)=O)NC(=O)[C@H](CC(C)C)NC(=O)[C@@H](NC(=O)[C@H](CCCNC(=N)N)NC(=O)[C@H](CS)NC(=O)[C@H](CCC(=O)O)NC(=O)[C@@H](N)CCC(=O)O)C(C)C)C(=O)O [compound 556]
1 | CC(C)[C@H](NC(=O)[C@H](CO)NC(=O)CNC(=O)[C@H](CC(N)=O)NC(=O)[C@H](CCC(N)=O)NC(=O)[C@@H]1CCCN1C(=O)[C@H](CCC(N)=O)NC(=O)[C@H](CS)NC(=O)[C@H](CCC(=O)O)NC(=O)[C@@H]1CCCN1)C(=O)O [compound 557]
1 | CC(C)C[C@H](NC(=O)[C@H](CCC(=O)O)NC(=O)[C@@H](N)[C@@H](C)O)C(=O)N[C@H](C(=O)N[C@@H](CCC(=O)O)C(=O)N1CCC[C@H]1C(=O)N[C@@H](CC(C)C)C(=O)N[C@H](C(=O)N1CCC[C@H]1C(=O)N[C@@H](CO)C(=O)NCC(=O)O)[C@@H](C)O)C(C)C [compound 558]
1 | CSCC[C@H](NC(=O)[C@H](C)NC(=O)CNC(=O)[C@H](CO)NC(=O)[C@@H]1CCCN1C(=O)[C@@H](NC(=O)[C@H](CC(C)C)NC(=O)[C@@H]1CCCN1C(=O)[C@H](CCC(=O)O)NC(=O)[C@@H](N)C(C)C)[C@@H](C)O)C(=O)O [compound 559]
1 | CC(C)C[C@H](NC(=O)[C@@H](NC(=O)[C@H](CCCCN)NC(=O)[C@@H](NC(=O)[C@H](CCCCN)NC(=O)[C@H](CCCNC(=N)N)NC(=O)[C@H](CC(C)C)NC(=O)[C@H](CCC(=O)O)NC(=O)[C@@H](NC(=O)[C@H](CCC(=O)O)NC(=O)[C@@H](N)CCCCN)[C@@H](C)O)C(C)C)C(C)C)C(=O)O [compound 560]
1 | CC(C)C[C@H](NC(=O)[C@H](CCC(=O)O)NC(=O)[C@@H](N)[C@@H](C)O)C(=O)N[C@@H](CCCNC(=N)N)C(=O)N[C@@H](CCCCN)C(=O)N[C@H](C(=O)N[C@@H](CCCCN)C(=O)N[C@H](C(=O)N[C@@H](CC(C)C)C(=O)NCC(=O)O)C(C)C)C(C)C [compound 561]
